Values quoted from earlier work, collected in US20140031355A1, “HETEROCYCLIC COMPOUNDS AND THEIR USES” (Amgen Inc., priority 2010, published 2014).

Chains of the proteins cited; added tags and fusions are not shown.
UniProt P42338, whole entry, species assumed: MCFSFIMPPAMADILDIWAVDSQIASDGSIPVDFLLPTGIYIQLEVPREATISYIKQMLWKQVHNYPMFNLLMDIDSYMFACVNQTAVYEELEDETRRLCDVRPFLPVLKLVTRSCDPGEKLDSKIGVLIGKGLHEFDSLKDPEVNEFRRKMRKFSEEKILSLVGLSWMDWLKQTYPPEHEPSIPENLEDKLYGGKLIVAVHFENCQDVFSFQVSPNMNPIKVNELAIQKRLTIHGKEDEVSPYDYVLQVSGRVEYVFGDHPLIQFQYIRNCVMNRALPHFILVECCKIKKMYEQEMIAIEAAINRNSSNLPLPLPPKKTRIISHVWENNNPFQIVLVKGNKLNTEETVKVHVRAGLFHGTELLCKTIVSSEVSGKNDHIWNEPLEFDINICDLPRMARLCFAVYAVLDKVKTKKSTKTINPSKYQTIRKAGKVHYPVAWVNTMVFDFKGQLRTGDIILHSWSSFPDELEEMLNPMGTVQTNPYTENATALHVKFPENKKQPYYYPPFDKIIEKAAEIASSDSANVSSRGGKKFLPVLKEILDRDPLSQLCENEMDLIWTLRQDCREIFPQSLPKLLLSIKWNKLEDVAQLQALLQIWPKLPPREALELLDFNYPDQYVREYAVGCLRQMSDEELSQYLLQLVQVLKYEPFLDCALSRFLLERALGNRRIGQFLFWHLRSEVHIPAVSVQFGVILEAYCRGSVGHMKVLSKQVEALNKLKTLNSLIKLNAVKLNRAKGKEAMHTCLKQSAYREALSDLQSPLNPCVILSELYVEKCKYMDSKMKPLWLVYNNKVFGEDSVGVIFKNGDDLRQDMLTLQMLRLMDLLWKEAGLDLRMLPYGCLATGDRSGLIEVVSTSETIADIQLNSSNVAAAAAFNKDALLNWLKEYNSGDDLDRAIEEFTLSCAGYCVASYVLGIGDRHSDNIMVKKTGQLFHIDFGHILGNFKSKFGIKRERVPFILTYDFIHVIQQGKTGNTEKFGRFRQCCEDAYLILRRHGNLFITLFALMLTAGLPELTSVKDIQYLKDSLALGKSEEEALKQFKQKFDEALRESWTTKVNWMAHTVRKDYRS

Molecular target: p110β (Homo sapiens, UniProt P42338)
Conditions: quantity not given; read-out: potency on beta

## Cc1cc(C(C)Nc2ccccc2)c2nc(N3CCOCC3)cc(=O)n2c1 (stereo not shown) [TGX-221]
  IC50: 7 nM
